Measured values as given in ChEMBL document CHEMBL1132280, “Discovery of potent and selective SH2 inhibitors of the tyrosine kinase ZAP-70” (J Med Chem, 1999).
pIC50: −log10 of the molar value.

Target: Tyrosine-protein kinase SYK (Homo sapiens, UniProt P43405)
Assay: Binding affinity against Syk protein tyrosine kinase SH2 domain
Set-up: species or system Escherichia coli

**Q.** With CC(=O)N[C@@H](CC(N)=O)C(=O)N[C@@H](CCC(N)=O)C(=O)N[C@@H](CC(C)C)C(=O)N[C@@H](Cc1ccc(OP(=O)(O)O)cc1)C(=O)N[C@@H](CC(N)=O)C(=O)N[C@@H](CCC(=O)O)C(=O)N[C@@H](CC(C)C)C(=O)N[C@@H](CC(N)=O)C(=O)N[C@@H](CC(C)C)C(=O)NCC(=O)N[C@@H](CCCN=C(N)N)C(=O)N[C@@H](CCCN=C(N)N)C(=O)N[C@@H](CCC(=O)O)C(=O)N[C@@H](CCC(=O)O)C(=O)N[C@@H](Cc1ccc(OP(=O)(O)O)cc1)C(=O)N[C@@H](CC(=O)O)C(=O)N[C@H](C(=O)N[C@@H](CC(C)C)C(=O)N[C@@H](CC(=O)O)C(N)=O)C(C)C as the molecule, how does the pIC50 read?
**A.** Its pIC50 is 6.32.
